Measurements: patent US6664406B1, “Nervonic acid derivatives, their preparation and use” (Croda International PLC, priority 1999, dated 2003)
Read-outs that look alike come from different tables or passages of the source. Marks after values point to notes of the source that are not given here.

Tested on: experimental allergic encephalomyelitis (EAE) in the Lewis rat
Conditions: for effect on the course of neurological EAE: compared to undosed and vehicle; for Number diseased/total: 5 days prior to inoculation and 25 days PI; for Number diseased/total / Mean day of final symptom loss (±SD) / Mean day of symptom onset (±SD) / Mean duration of symptoms (day ± SD) / Number of dead/total: n=7
[1] = Lewis rat, 1000 mg/kg body weight/day
[2] = Lewis rat, neat oil oral 1000 mg/kg body weight/day
[3] = rat, in vivo, po, 1000 mg/kg/day

SMILES: CCCCC/C=C\C/C=C\C/C=C\CCCCC(=O)OCCCOC(=O)CCCC/C=C\C/C=C\C/C=C\CCCCC [GLA:GLA, 1,3-Di(z,z,z-6,9,12-Octadecatrienoyloxy)propane, reference compound]
- effect on the course of neurological EAE [1]: did not alter the course of neurological EAE
- FT (flaccid tail): Number of animals showing symptoms/total [2]: 7/7
- HLH (hind limb hypotonia): Number of animals showing symptoms/total [2]: 7/7
- Symptom onset, loss of signs and disease duration compared to control groups [2]: not significantly different compared to control groups
- Number diseased/total [2]: 7/7
- Mean day of final symptom loss (±SD) [2]: 18.0 ± 0.7 days
- Mean day of symptom onset (±SD) [2]: 11.9 ± 0.9 days
- Mean duration of symptoms (day ± SD) [2]: 6.1 ± 0.8 days
- Number of dead/total [2]: 2/7
- CHLP (complete hind limb paralysis): Number of animals showing symptoms/total [3]: 3/7
- PHLP (partial hind limb paralysis): Number of animals showing symptoms/total [3]: 4/7

SMILES: CCCCCCCC/C=C\CCCCCCCCCCCCCC(=O)OCCCOC(=O)CCCCCCCCCCCCC/C=C\CCCCCCCC [NA:NA, 1,3-di-(z-15-tetracosenoyloxy)propane]
- animals displaying initial disease symptoms [1]: 4/7
- mean cumulative neurological scores (Lewis rat, 1000 mg/kg body weight/day, beginning 14 days PI): consistently lower than undosed and vehicle treatments
- effect on the course of neurological EAE [1]: clearly reduced the overall intensity of disease
- FT (flaccid tail): Number of animals showing symptoms/total [2]: 7/7
- HLH (hind limb hypotonia): Number of animals showing symptoms/total [2]: 4/7
- PHLP (partial hind limb paralysis): Number of animals showing symptoms/total [2]: 0/7 #
- Symptom onset, loss of signs and disease duration compared to control groups [2]: not significantly different compared to control groups
- Number diseased/total [2]: 7/7
- Mean day of final symptom loss (±SD) [2]: 17.6 ± 1.6 days
- Mean day of symptom onset (±SD) [2]: 12.4 ± 1.5 days
- Mean duration of symptoms (day ± SD) [2]: 5.2 ± 1.6 days
- Number of dead/total [2]: 0/7
- CHLP (complete hind limb paralysis): Number of animals showing symptoms/total [3]: 0/7
